Bioassay records from PubChem.
PINK1 modulator: changes PINK1 expression. Potency, µM (series often up to 76.6 µM), without a hit: top-dose activation (PINK1 increase), actives largely listed as activators. PINK1 immunofluorescence, high-content cytometry, 24 h. 0.2% of 410,000 active; active means well fitted activation curve with a large enough effect; inconclusive means small, poorly fitted or top-dose-only effect; cell line not stated here; further: potency means the concentration at half of the fitted maximal effect; % of control where 0% means no effect; nearly all actives have a fitted effect of over 65% in size
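Stable cell line treated 24 h with compounds at 5 concentrations (CCCP controls), then fixed and immunostained for PINK1 plus nuclear and cell stains; PINK1 immunofluorescence quantified by laser-scanning microplate cytometry.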
GALK inhibitor: inhibitors of human galactokinase; Potency, µM (series often up to 57.5 µM), without a hit: top-dose activity change, negative = inhibition, actives largely listed as inhibitors; P51570; Purified GALK, Kinase-Glo residual ATP luminescence; 0.007% of 270,000 active; further: potency means the concentration at half of the fitted maximal effect; on the % scale 0 is the no-effect control and ±100 the full control effect
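Quantitative HTS: GALK 5 nM, ATP 35 uM, galactose 100 uM, 1 h room temperature, then luciferase-based ATP detection.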
TrxR1 substrate: rat thioredoxin reductase 1 substrate activity; Potency, µM (series often up to 114 µM), for the others: at the top dose activity change, negative = substrate turnover; O89049; 0.01% of 390,000 active; purified TrxR1 substrate turnover, NADPH consumption readout; AID 588456; further: potency means the concentration at half of the fitted maximal effect; on the % scale 0 is the no-effect control and ±100 the full control effect; nearly all actives have a fitted effect of over 50% in size
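Rat TrxR1, dispensed at 90 nM, was prereduced with 400 uM NADPH (final) for 5 min at ~22 deg C, then incubated with compound 15 min before 400 uM selenite. A first-read NADPH fluorescence drop versus no-compound background flagged substrates.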
TrxR1 inh: blocks rat thioredoxin reductase 1 | recombinant rTrxR1, NADPH fluorescence consumption, selenite substrate | Potency, µM (titrated, usually from 114 µM), for inactives: at the highest dose activity change, negative = inhibition, actives largely listed as inhibitors | 1% of 390,000 active; further: potency means the concentration at half of the fitted maximal effect; on the % scale 0 is the no-effect control and ±100 the full control effect; nearly all actives have a fitted effect of over 65% in size
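Rat TrxR1 (90 nM in the dispensed reagent) was pre-reduced with 400 uM NADPH for 5 min at room temperature, then incubated with compound for 15 min. After 400 uM selenite was added, NADPH fluorescence (Ex 340/Em 450 nm) was followed for 8 min.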
miR-21 reporter: miR-21 reporter, rising signal | 340,000 tested, under 10 active | AID 2288 | HeLa miR-21 FLuc reporter, luciferase, 48 h | Potency, µM (titrated, usually from 38.3 µM), for inactives: at the highest dose reporter change, positive = more light; active = well fitted rising curve with a large enough effect; inconclusive = small, poorly fitted or top-dose-only effect; inactive = no such curve, though single readings can be large or run the other way;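 further: % of control where 0% means no effect; miR-21 action dims this reporter so a rising signal means less miR-21 action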
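Luminescence from a firefly luciferase reporter carrying a miR-21 binding site downstream, stably expressed under a CMV promoter in HeLa cells that make miR-21 endogenously, reports miRNA modulation after 48 h compound exposure up to approximately 40uM final.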
* hit, by the source's call; ? = inconclusive; . = no result given; [ ] = dose if it differs, or a comment. Rows were chosen to be rich in hits. Some 1.1% of all compounds tested hit in one or more screens of this group. Unless noted, the call rests on the fitted dose curve; in most records, active means well fitted curve in the direction sought with a large enough effect; inconclusive means small, poorly fitted or top-dose-only effect, or another doubt; inactive means no such curve, though single readings can be large; an effect the other way counts as inactive or inconclusive.

Molecule,PINK1 modulator,GALK inhibitor,TrxR1 substrate,TrxR1 inh,miR-21 reporter
COc1cc(C(=O)NCCCc2nc3ccccc3n2CC(C)C)cc(OC)c1OC,3%,.,-4%,11%,5%
O=C(C[n+]1c2ccccc2cc2ccccc21)c1ccc(F)cc1,0%,.,8%,-24%,.
CCC(C)n1c(=O)c2sccc2n2c(CCCC(=O)Nc3ccc(F)cc3)nnc12 (stereo not drawn),-1%,.,-2%,18%,5%
OCCN1CCN(C(c2cccs2)c2ccc3cccnc3c2O)CC1 (stereo not drawn),.,2%,.,.,23%
CCN1CCN(C(c2ccc(C(F)(F)F)cc2)c2ccc3cccnc3c2O)CC1 (stereo not drawn),13%,-1%,6%[57.1 µM],3.5µM*,25%
C1=Cc2ccccc2/C1=C\c1cccc(/C=C2\C=Cc3ccccc32)c1,0%,.,-1%,20µM*,.
Brc1ccc(/C=C2\C=Cc3ccccc32)cc1,2%,.,1%,32µM*,.
C1=Cc2ccccc2/C1=C\c1ccc(/C=C2\C=Cc3ccccc32)cc1,0%,.,-4%,-4%,.
Cc1cc(/C=C2\C=Cc3ccccc32)cc(C)c1[N+](=O)[O-],0%,.,-5%,20µM*,.
O=c1sc(/C=N/Nc2ccccc2)c(Cl)n1Cc1ccccc1,12%,2%,7%[57.1 µM],13µM*,-30%
COC(=O)c1cccc(Cn2c(Cl)c(/C=N/NC(=O)c3ccco3)sc2=O)c1,4%,7%,-16%,40µM*,-7%
O=Cc1sc(=O)n(Cc2cccc(C(=O)O)c2)c1Cl,0%,4%,6%,3.2µM*,1%

Part of the list above, reformatted.
Values run as follows: PINK1 modulator, GALK inhibitor, TrxR1 substrate, TrxR1 inh, miR-21 reporter
> C1=Cc2ccccc2/C1=C\c1cccc(/C=C2\C=Cc3ccccc32)c1
→ 0%, ., -1%, 20µM*, .
> Brc1ccc(/C=C2\C=Cc3ccccc32)cc1
→ 2%, ., 1%, 32µM*, .

(continued)
Molecule,PINK1 modulator,GALK inhibitor,TrxR1 substrate,TrxR1 inh,miR-21 reporter
COC(=O)c1cccc(Cn2c(Cl)c(/C=N/NC(=O)c3ccccc3Cl)sc2=O)c1,1%[38.3 µM],-4%,-6%,?,0%
O=C(O)c1cccc(Cn2c(Cl)c(/C=N/NC(=O)c3ccc(O)cc3)sc2=O)c1,0%,.,-14%,?,-9%
CO[C@H]1[C@H](NC(=O)c2ccsc2)c2ccccc2C12CCN(Cc1cccc3ncccc13)CC2,1%,.,.,.,.
Cc1ccccc1-c1cc2nc(NCCOc3ccccc3Cl)n(C)c(=O)c2s1,7%,.,.,.,.
O=C(c1ccc(F)cc1)c1cc2ccc(O)cc2oc1=O,2%,14%,-2%,?,-44%
N=c1oc2cc(O)ccc2cc1C(=O)Nc1ccc(F)cc1,14µM*,-2%,172%,?,18%
O=C(O)c1cc(N(Cc2ccccc2O)Cc2ccccc2O)ccc1O,.,.,1%,40µM*,.
CCN(CC)c1ccc(C(=O)c2ccccc2C(=O)O)c(O)c1,2%,-2%,-20%,-27%,-26%
Cn1cnc([N+](=O)[O-])c1S(=O)(=O)c1ccc(Cl)cc1,2%,3%,5%[57.1 µM],0.32µM*,?
O=C(CCN1CCc2ccccc2CC1)c1ccc2c(c1)OCCO2,-1%,2%,3%,0.32µM*,?
O=C(CCCN1CCOCC1)c1ccc2c(c1)OCCO2,.,5%,10%,8%,-28%
O=C(CCN1CCOCC1)c1ccc2c(c1)OCCO2,-1%,-2%,7%,4µM*,-1%

The list goes on.
Molecule,PINK1 modulator,GALK inhibitor,TrxR1 substrate,TrxR1 inh,miR-21 reporter
O=C(Nc1ccc2oc(-c3cc(Br)ccc3Cl)nc2c1)c1cc2ccccc2o1,9%,.,9%,6%,-9%
O=C1CC(N2CCC(Cc3ccccc3)CC2)C(=O)N1CCc1ccccc1 (stereo not drawn),-5%[38.3 µM],3%,1%,32µM*,-2%
O=C1OC(CN(Cc2ccccc2)Cc2ccccc2)CN1N=Cc1ccc([N+](=O)[O-])o1 (stereo not drawn),4%,.,-15%,56µM*,.
CCC(=O)N(CCC(c1ccco1)c1ccccc1OC)Cc1cccs1 (stereo not drawn),.,4%,3%,35µM*,14%
CC(=O)N(CCC(c1ccccc1)c1ccco1)Cc1cccs1 (stereo not drawn),2%,.,-1%,25µM*,22%
COc1ccccc1C(=O)NCCC(=O)N(Cc1ccco1)Cc1cccs1,0%,4%,-7%,?,-5%
Cc1nc2nncn2c(Nc2ccc(F)cc2)c1C,0%,.,-5%,-2%,-5%
Cc1cccc(OCC(=O)Nc2ccccc2C(=O)OCc2cc(=O)n3nc(C)sc3n2)c1,0%,.,3%[57.1 µM],12%[57.1 µM],-8%
N#C/C(=C(/O)c1cccc(F)c1)c1nc2ccccc2s1,40µM*,0%,-16%,-7%,-26%
Cn1c(/C(C#N)=C(\O)c2cccc(F)c2)nc2ccccc21,3%,-2%,5%[57.1 µM],7%[57.1 µM],-4%
C=CCn1c(SCc2nc3ccccc3nc2C)nnc1-c1ccoc1C,0%,6%,0%,45µM*,-10%
CCOc1ccc(CCNC(=O)Cn2nnc(-c3ccccc3Cl)n2)cc1OCC,4%,.,-5%,3%,1%

(cont.)
Molecule,PINK1 modulator,GALK inhibitor,TrxR1 substrate,TrxR1 inh,miR-21 reporter
CN1CCN(c2cc(-c3ccc4ccccc4c3)nc3ccnn23)CC1,45µM*,.,.,.,.
CC(C)n1nc(C(=O)Nc2nnc(SCc3c(Cl)cccc3Cl)s2)c2ccccc2c1=O,5.6µM*,-3%,9%,14%,-3%
O=C(OCn1ncc(Cl)c(Cl)c1=O)c1ccc(F)cc1,.,-6%,.,.,?
O=C(OCn1ncc(Cl)c(Cl)c1=O)c1ccccc1Cl,-3%,-13%,-6%,8.9µM*,27%
C=CS(=O)(=O)c1ccc(Oc2ccc(S(=O)(=O)C=C)cc2)cc1,5%,-3%,-4%,5µM*,?
CCCc1nc([N+](=O)[O-])c(S(=O)(=O)c2ccccc2)n1CC(C)C,4%,.,-3%,2.8µM*,?
N#Cc1ccsc1NC(=O)c1ccc(Cl)c([N+](=O)[O-])c1,32µM*,-1%,7%,10%,-14%
Cc1ccc(NC(=O)CN2C(=O)CCc3cc(S(=O)(=O)N4CCOCC4)ccc32)cc1F,3%,.,-4%[57.1 µM],-5%[57.1 µM],-5%
C/C=C1\COC(C(=O)NCc2cccc(OC)c2OC)(C(F)(F)F)C=C1C=C1CCCCC1 (stereo not drawn),10%,.,-3%,5µM*,.
CC=C1COC(C(=O)NCCOCCO)(C(F)(F)F)C=C1C=C(C)C (stereo not drawn),.,.,5%,3.5µM*,.
CNC(=O)C1(C(F)(F)F)C/C(=C/CCO)CCCO1 (stereo not drawn),.,.,-3%,10%,.
C/C=C1\COC(C(=O)NC)(C(F)(F)F)C=C1C=C1CCCCC1 (stereo not drawn),.,.,0%,1.4µM*,.
C/C=C1\COC(C(=O)NCCOCCO)(C(F)(F)F)C=C1C=C1CCCCC1 (stereo not drawn),.,.,5%,1.6µM*,.
C/C=C1\COC(C(=O)NCc2ccncc2)(C(F)(F)F)C=C1C=C1CCCCC1 (stereo not drawn),2%,.,-3%,18µM*,.
O=C(NCc1ccccc1)C1(C(F)(F)F)C/C(=C/Cc2ccccc2)CCCO1 (stereo not drawn),.,.,-8%,-11%,.

Compound profiles (already shown).
O=C(NCc1ccccc1)C1(C(F)(F)F)C/C(=C/Cc2ccccc2)CCCO1 (stereo not drawn) reads PINK1 modulator = .; GALK inhibitor = .; TrxR1 substrate = -8%; TrxR1 inh = -11%; miR-21 reporter = .
O=C(OCn1ncc(Cl)c(Cl)c1=O)c1ccccc1Cl reads PINK1 modulator = -3%; GALK inhibitor = -13%; TrxR1 substrate = -6%; TrxR1 inh = 8.9µM*; miR-21 reporter = 27%
